Consider 20 compounds from PubChem BioAssay AID602163 (The Scripps Research Institute Molecular Screening Center, 2012).

Structures are written as SMILES. The list shows a part of the results, in another mix than the full data. Calls of active or inactive are those of the source. Rule as the data show it: active = activation above about 7.5%; inactive = the rest.

This experiment has as its system Methionine sulfoxide reductase A (Bos taurus). The experiment in a line: activation of methionine sulfoxide reductase A – biochemical, absorbance, bovine, HTS, primary screen (AID 602163).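 Also: 0% = vehicle and 100% = reference activator.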 The following applies: purified bovine MsrA, absorbance read-out; at 10.6 µM; hits give high values.
In the case of `O=P1(N(CCCl)CCCl)NCCC(C(F)(F)F)O1` (stereo not given), the activation is inactive: -2.78%.

`Clc1n[nH]nc1-c1nn[nH][15n]1`: the activation is inactive: -3.29%.

In the case of `CCOP(=O)(Nc1ccc(C)cn1)OCC`, the activation was inactive: -2.59%.

Consider `CN(CCCl)Cc1cc(Cl)c(NC2=NCCN2)c(Cl)c1`, for which the activation was inactive: -2.03%.

For `CCOP(=O)(NC(=NC(C)c1ccccc1)NC(C)c1ccccc1)OCC` (stereo not given), the activation is inactive: -3.49%.

Take `O=P1(Nc2ccccn2)COc2ccccc2OC1`: the activation is inactive: -9.2%.

For `CCC1=CC2Cc3nc4ccc(Cl)cc4c(N)c3C(C1)C2` (stereo not given), the activation is inactive: -8.52%.

On to `O=[As](O)(c1cccs1)c1cccs1`, for which the activation was inactive: -3.02%.

As to `Cc1ccc(OCC(=O)OC2CN3CCC2CC3)cc1` (stereo not given), the activation was inactive: -2.03%.

On to `O=P1(Nc2ccc(Br)cn2)COc2ccccc2OC1`, for which the activation was inactive: -0.3%.

On to `NS(=O)(=O)c1cccc(NC(=O)COC(=O)C(O)(c2ccccc2)c2ccccc2)c1`, for which the activation is inactive: -1.78%.

With `Nc1cccc([As](=O)(O)c2ccccc2)c1`, the activation was inactive: -2.67%.

In the case of `O=P1(Nc2ncccn2)COc2ccccc2OC1`, the activation is inactive: -1.72%.

With `Cc1ccc(S(=O)(=O)N(CCCN)CCCc2c(C)nc(N)[nH]c2=O)cc1`, the activation was inactive: -6.89%.

Regarding `CCCC1OP(=O)(Nc2ccccc2)OCC1CC` (stereo not given), the activation was inactive: -1.18%.

On to `O=C(/C=C/c1ccccc1)OC1CN2CCC1CC2` (stereo not given), for which the activation was inactive: 2.52%.

Consider `CN(C)C1(CNC(=O)c2ccc(S(C)(=O)=O)cc2)CCCCC1`, for which the activation was inactive: -4.98%.

As to `CC1CCC(C(C)C)C(OP(=O)(Nc2ccccn2)c2ccccc2)C1` (stereo not given), the activation is inactive: -5.49%.

`Cc1ccc(C(=O)OC2CN3CCC2CC3)cc1` (stereo not given): the activation was inactive: -4.88%.

On to `Cc1nn(-c2ccccc2)c2c1P(=O)(N1CCOCC1)N(C)C(c1ccccc1)=N2` (stereo not given), for which the activation is inactive: -3.5%.
